Target: recombinant human Estrogen Receptor alpha ligand binding domain (ER alpha-LBD (GST)) (Homo sapiens (Human), UniProt P03372)
Test: ERα binding assay (LanthaScreen TR-FRET competition)
Details: read-out: ER binding IC50 value, 50% reduction in tracer binding to ER alpha-LBD

Amino acid sequences for entries named in this document (tags omitted). Residues count along the entry.
UniProt P03372, 307-554: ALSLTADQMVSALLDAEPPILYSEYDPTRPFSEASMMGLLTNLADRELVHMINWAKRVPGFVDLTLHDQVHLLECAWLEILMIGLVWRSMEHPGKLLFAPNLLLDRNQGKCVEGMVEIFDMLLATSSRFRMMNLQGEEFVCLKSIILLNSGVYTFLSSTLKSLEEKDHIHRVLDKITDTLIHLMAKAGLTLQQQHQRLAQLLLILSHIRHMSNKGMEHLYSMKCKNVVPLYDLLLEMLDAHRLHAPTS

IC50 | SMILES
2.5 nM | COCC(F)(F)CN1[C@H](c2c(F)cc(OCCNCCCF)cc2F)c2[nH]c3ccccc3c2C[C@H]1C [Example 14, N-(2-(4-((1R,3R)-2-(2,2-difluoro-3-methoxypropyl)-3-methyl-2,3,4,9-tetrahydro-1H-pyrido[3,4-b]indol-1-yl)-3,5-difluorophenoxy)ethyl)-3-fluoropropan-1-amine]
2.6 nM | COc1cc(NCCNCCCF)ncc1[C@@H]1c2[nH]c3ccccc3c2C[C@@H](C)N1CC(C)(F)F [Example 68, N1-(5-((1R,3R)-2-(2,2-difluoropropyl)-3-methyl-2,3,4,9-tetrahydro-1H-pyrido[3,4-b]indol-1-yl)-4-methoxypyridin-2-yl)-N2-(3-fluoropropyl)ethane-1,2-diamine]

Reference: US10149839B2, “Chemical compounds” (AstraZeneca AB, priority 2016, dated 2018)
